In patent publication US20070299113A1, “Metabotropic glutamate receptor modulators” (MERZ PHARMA GMBH & CO. KGAA, priority 2006, published 2007) one finds Kd, IC50 and Ki data, which are given here for two compounds.

Amino acid sequences for entries named in this document (tags omitted). Residues count along the entry.
UniProt P31424, 21-1203: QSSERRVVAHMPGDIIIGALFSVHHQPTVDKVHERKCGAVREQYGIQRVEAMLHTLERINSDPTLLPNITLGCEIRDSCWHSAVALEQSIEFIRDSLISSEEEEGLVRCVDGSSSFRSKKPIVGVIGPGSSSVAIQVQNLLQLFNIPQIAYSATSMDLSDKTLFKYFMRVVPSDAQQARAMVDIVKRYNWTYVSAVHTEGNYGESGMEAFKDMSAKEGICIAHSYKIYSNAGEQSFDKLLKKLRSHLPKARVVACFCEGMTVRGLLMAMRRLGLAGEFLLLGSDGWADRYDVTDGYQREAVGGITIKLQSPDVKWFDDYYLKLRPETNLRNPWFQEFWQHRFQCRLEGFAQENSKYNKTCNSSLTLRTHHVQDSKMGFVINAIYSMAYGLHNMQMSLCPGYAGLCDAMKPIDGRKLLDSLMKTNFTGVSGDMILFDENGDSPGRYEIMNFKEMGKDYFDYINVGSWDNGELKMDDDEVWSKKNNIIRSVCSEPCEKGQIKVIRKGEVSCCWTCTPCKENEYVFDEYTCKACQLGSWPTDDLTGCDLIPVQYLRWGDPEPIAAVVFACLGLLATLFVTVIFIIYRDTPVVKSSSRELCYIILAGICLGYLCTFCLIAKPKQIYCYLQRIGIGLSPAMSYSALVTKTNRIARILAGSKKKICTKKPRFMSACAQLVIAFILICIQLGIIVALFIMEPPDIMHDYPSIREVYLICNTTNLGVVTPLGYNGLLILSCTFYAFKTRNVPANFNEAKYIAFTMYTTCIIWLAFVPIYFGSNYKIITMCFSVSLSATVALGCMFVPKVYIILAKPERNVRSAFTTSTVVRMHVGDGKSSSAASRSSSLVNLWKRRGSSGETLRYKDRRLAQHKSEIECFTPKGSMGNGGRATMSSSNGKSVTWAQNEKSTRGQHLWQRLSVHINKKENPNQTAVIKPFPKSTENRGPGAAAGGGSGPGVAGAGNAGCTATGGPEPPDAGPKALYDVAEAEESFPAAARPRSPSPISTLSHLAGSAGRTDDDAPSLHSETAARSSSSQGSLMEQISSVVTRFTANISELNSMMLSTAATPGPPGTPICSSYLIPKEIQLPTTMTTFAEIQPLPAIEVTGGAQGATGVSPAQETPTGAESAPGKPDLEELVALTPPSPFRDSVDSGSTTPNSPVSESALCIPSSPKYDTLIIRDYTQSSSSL

The target in this experiment is T1, transmembrane allosteric modulatory sites of mGluR5 receptors (Rattus norvegicus, UniProt P31424).
T1 construct: The cortex is dissected and homogenized in 20 volumes of ice-cold 0.32 M sucrose; from tissue; host or cells: rat cerebral cortex membranes (male Sprague-Dawley)
Briefly: [^3H]MPEP binding to mGluR5 receptors in rat cortical membranes. The method, then:
[^3H]MPEP (2-methyl-6-(phenylethynyl)pyridine) Binding to Transmembrane Allosteric Modulatory Sites of mGluR5 Receptors in Cortical Membranes
Male Sprague-Dawley rats (200-250 g) are decapitated and their brains are removed rapidly. The cortex is dissected and homogenized in 20 volumes of ice-cold 0.32 M sucrose using a glass-Teflon homogenizer. The homogenate is centrifuged at 1000×g for 10 min. The pellet is discarded and the supernatant centrifuged at 20,000×g for 20 min. The resulting pellet is re-suspended in 20 volumes of distilled water and centrifuged for 20 min at 8000×g. Then the supernatant and the buffy coat are centrifuged at 48,000×g for 20 min in the presence of 50 mM Tris-HC, pH 8.0. The pellet is then re-suspended and centrifuged two to three more times at 48,000×g for 20 min in the presence of 50 mM Tris-HCl, pH 8.0. All centrifugation steps are carried out at 4° C. After resuspension in 5 volumes of 50 mM Tris-HCl, pH 8.0 the membrane suspension is frozen rapidly at −80° C.
On the day of assay the membranes are thawed and washed four times by resuspension in 50 mM Tris-HCI, pH 8.0 and centrifugation at 48,000×g for 20 min. and finally re-suspended in 50 mM Tris-HCl, pH 7.4. The amount of protein in the final membrane preparation (250-500 μg/ml) is determined according to the method of Lowry (Lowry O. H. et al., 1951, J. Biol. Chem., 193, 256-275).
Incubations are started by adding (^3H)-MPEP (50.2 Ci/mmol, 5 nM, Tocris) to vials with 125-250 μg protein (total volume 0.5 ml) and various concentrations of the agents. The incubations are continued at room temperature for 60 min (equilibrium is achieved under the conditions used). Non-specific binding is defined by the addition of unlabeled MPEP (10 μM). Incubations are terminated using a Millipore filter system. […] Following separation and rinse, the filters are placed into scintillation liquid (5 ml Ultima Gold) and radioactivity retained on the filters is determined with a conventional liquid scintillation counter (Hewlett Packard, Liquid Scintillation Analyser). […]

Each structure is given as a SMILES string.

A word on the Kd: it is the free concentration of one partner at which half of the binding sites on the other are occupied at equilibrium, for simple one-to-one binding. On to `Cc1cccc(C#Cc2ccccc2)n1` [(^3H)-MPEP, 2-methyl-6-(phenylethynyl)pyridine], for which, where the note is “read-out: Kd determined by Scatchard analysis”, the Kd amounted to 13.6 nM.
For orientation: IC50 means the concentration that gives 50% inhibition. One may read the Ki as the dissociation constant of the complex between target and ligand, obtained from inhibition or displacement. `Cc1cccc(C#Cc2ccccc2)n1` [MPEP, 2-methyl-6-(phenylethynyl)pyridine]: the IC50 (5 nM (^3H)-MPEP, room temperature, 60 min, read-out: IC50 for displacement of hot ligand ([^3H]MPEP)) stood at 18.8 ± 4.1 nM. Also, the Ki (calculated with Kd of (^3H)-MPEP of 13.6 nM, read-out: Ki (IC50 of cold MPEP equated by Cheng Prussoff relationship)) was 13.7 nM.
